Experimental findings from patent publication US11142543B2 (priority 2016, dated 2021) are described below.

The test system of this assay is C57 mice susceptible to social defeat by CD-1 aggressive mice. Description: Social defeated stress (SDS) model, Example 42. It is filed as in vivo.

Take `C[C@H]1CC[C@@]2(OC1)O[C@H]1C[C@H]3[C@@H]4CC[C@@H]5C[C@H](NC(=O)NC6CCCCC6)CC[C@]5(C)[C@H]4CC[C@]3(C)[C@H]1[C@@H]2C` [compound C-11]: the mouse social time entry (FIG. 5A, C-11 10 mg/kg gavage every day, fluoxetine 10 mg/kg intraperitoneally every day, 3 weeks) is reported as “significantly increased the social time of the mice during the second week of administration”. Also, the “antidepressant activity compared with fluoxetine” value (social defeated stress model) is recorded as “superior antidepressant activity to fluoxetine”.
